Results: publication PMC2901233 (Nuclear medicine and biology, 2010)

Test system: serotonin transporter
[1] = 1 mg/kg IV at 8 h post-radiotracer, n=2

SMILES: CNCCC(Oc1ccccc1OC)c1ccccc1 (stereo not shown) [Nisoxetine, nisoxetine]
- Percent Displacement in [123I]p ZIENT (BPND), Basal Ganglia [1]: 4%
- Percent Displacement in [123I]p ZIENT (BPND), Brainstem [1]: 2%
- Percent Displacement in [123I]p ZIENT (BPND), Diencephalon [1]: 5%
- Percent Displacement in [123I]p ZIENT (BPND), Hippocampus [1]: 9%
- Percent Displacement in [123I]p ZIENT (BPND), Temporal Cortex [1]: 8%
- displacement (change) of [123I]p ZIENT in diencephalon and brainstem (1 mg/kg at 8 h post-radiotracer): < 10%
- displacement of [123I]p ZIENT in all regions studied, in words (IV at 8 h post-radiotracer, fluoxetine 1.5, 2.5, citalopram 5, methylphenidate 0.5, nisoxetine 1 mg/kg): no significant changes
